Reference: patent US9636335B2, “Heteroaryl compounds as 5-HT4 receptor ligands” (Suven Life Sciences Ltd, priority 2011, dated 2017)

Columns and labels:
[1] = test system: Male Wister rats; assay: Object recognition task model; type: in vivo; details: 3 mg/kg, p.o., rat
[2] = test system: rats; assay: Radial arm maze, reversal of scopolamine induced amnesia; type: in vivo; details: p.o., rat
From the text: The cognition enhancing properties of compounds of this invention were estimated by using this model.
Radial arm maze consists of a central hub of 45 cm diameter. Each arm was of dimension 42.5×15×24 cm. The maze was elevated to a height of 1 m above the ground. […] During this diet restriction period animals were habituated to the novel feed (pellets). […] Animals were randomized on day 2. On the subsequent days the treatment was given as per the allotment. Each animal was introduced into the maze individually for a period of 10 minutes. The arms were baited only once and the animal had to learn the rule that repeated arm entries would not be rewarded. The trial ended once the rat had visited 16 arms or 10 minutes were over or all the pellets were eaten. The arm entries were recorded using the software. Once the trial was over the rat was removed and the maze was cleaned using soap water.

## COCCCN1CCC(c2nnc(-c3nn(C(C)C)c4ccccc34)o2)CC1.O=C(O)C(=O)O [Example 3, 1-isopropyl-3-{5-[1-(3-methoxypropyl)piperidin-4-yl]-[1,3,4]oxadiazol-2-yl}-1H-indazole oxalate salt]
[1]
  Inference: Active
[2]
  Reversal of Scopolamine Induced amnesia - Effective dose range: 1-3 mg/kg, p.o.
